Test results from patent US20250108034A1, “EYE DROP FORMULATION” (priority 2021, published 2025).

Assay: Solubility of ASP-CD in physiological saline solution with benzalkonium chloride
Assay type: physicochemical
Conditions: 35° C., BC 0.004 and 0.008%
Protocol: Excess amounts of ASP were added to 5 mL of physiological saline solutions containing increasing concentrations of CD in the 1-20 mM range in sealed glass vials. Different concentration of benzalkonium chloride (BC) (0.004 and 0.008%) as preservative agent was added to the formulation The obtained suspensions were electromagnetically stirred (500 rpm) at constant temperature (35+0.5° C.) until equilibrium (24 h). Then, aliquots were withdrawn, centrifuged using a Hermle Z323K high performance refrigerated centrifuge (Hermle AG, Goss-heim, Germany) for 30 min at 16,000 rpm to separate solid ASP crystals from ASP-CD solution and ASP concentration was assayed with HPLC-DAD.
The determination of ASP concentration was performed with HPLC using an Agilent 1260 (Agilent Technologies, Santa Clara, USA). As stationary phase a Zorbax Eclipse© C18 column 100×4.6 mm, 5 μm (Phenomenex, Torrance, CA, USA) was applied. Isocratic elution with purified water and methanol 10:90 (v/v) was applied for 6 min at a flow rate of 1.0 mL/min at 25° C. 10 μL of the samples were injected to determine the ASP concentration. The chromatograms were detected at 255 nm using UV-VIS diode array detector. Data were evaluated using ChemStation B.04.03. […] The linear regression of the calibration line was 0.9998 the limit of detection (LOD) and quantification (LOQ) was 1.11 μg/ml and 3.33 μg/ml, respectively.

benzalkonium chloride [BC]
Effect of BC on ASP solubility: negative effect
